1 molecule from article PMC7316143 (Drug testing and analysis, 2018) can be followed below.

Sequences of proteins named here, by UniProt entry; tags and fusion partners are left off.
UniProt P23977, whole entry: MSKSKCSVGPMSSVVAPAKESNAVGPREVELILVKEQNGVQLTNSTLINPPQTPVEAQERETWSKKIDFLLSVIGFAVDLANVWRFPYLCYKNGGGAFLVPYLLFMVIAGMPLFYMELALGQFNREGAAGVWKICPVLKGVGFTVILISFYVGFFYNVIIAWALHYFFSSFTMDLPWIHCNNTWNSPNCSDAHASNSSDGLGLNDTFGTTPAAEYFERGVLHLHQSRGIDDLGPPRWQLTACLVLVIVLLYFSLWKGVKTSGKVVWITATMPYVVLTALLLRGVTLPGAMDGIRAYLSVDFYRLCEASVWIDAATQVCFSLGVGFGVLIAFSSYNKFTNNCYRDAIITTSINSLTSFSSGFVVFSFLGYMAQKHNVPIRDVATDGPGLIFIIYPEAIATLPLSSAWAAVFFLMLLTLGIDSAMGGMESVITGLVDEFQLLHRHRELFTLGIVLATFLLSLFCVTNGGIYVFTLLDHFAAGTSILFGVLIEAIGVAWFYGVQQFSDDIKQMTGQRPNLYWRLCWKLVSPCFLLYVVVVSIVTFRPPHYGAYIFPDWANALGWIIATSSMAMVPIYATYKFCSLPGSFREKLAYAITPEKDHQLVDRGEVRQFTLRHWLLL

Assay [1] addresses T1, DAT (Rattus norvegicus, UniProt P23977). In words: [3H]dopamine uptake inhibition at DAT in rat brain synaptosomes. To be noted: (DAT IC50^-1)/(SERT IC50^-1); higher value indicates greater DAT selectivity. It is filed as biochemical.
For assay [2], the target named is T1, DAT. Briefly: [3H]MPP+ release at DAT in rat brain synaptosomes. It is filed as biochemical. To be noted: (DAT EC50^-1)/(SERT EC50^-1); higher value indicates greater DAT selectivity.

Bounds are passed on as bounds.

Turning to `CC1NCCOC1c1ccccc1` (centres unmarked) [Phenmetrazine, 3-methyl-2-phenylmorpholine, reference compound], the “DAT/SERT ratio (uptake inhibition)” value in assay [1] came to 3.8. The “DAT/SERT ratio (release)” value in assay [2] was over 142.0.
